Consider three substances from US10994047B2, “Peptide dendrimers comprising fibrinogen-binding peptides” (HAEMOSTATIX LIMITED, priority 2014, dated 2021).

In one assay the target is T1, fibrinogen (Homo sapiens, UniProt P02675+P02679).
T1 sequence (P02679 27-433 limits assumed): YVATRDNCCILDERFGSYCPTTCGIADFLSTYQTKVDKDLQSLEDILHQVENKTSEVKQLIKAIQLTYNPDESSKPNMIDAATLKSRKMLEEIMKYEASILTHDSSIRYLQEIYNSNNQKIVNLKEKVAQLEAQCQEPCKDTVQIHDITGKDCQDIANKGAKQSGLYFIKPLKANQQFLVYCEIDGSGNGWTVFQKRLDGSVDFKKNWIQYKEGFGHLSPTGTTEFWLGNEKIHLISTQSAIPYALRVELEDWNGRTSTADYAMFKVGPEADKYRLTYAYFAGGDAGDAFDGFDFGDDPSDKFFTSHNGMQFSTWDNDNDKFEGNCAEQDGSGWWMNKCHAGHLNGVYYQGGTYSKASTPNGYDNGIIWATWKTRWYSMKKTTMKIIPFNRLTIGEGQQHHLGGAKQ
T1 sequence (P02675 31-491): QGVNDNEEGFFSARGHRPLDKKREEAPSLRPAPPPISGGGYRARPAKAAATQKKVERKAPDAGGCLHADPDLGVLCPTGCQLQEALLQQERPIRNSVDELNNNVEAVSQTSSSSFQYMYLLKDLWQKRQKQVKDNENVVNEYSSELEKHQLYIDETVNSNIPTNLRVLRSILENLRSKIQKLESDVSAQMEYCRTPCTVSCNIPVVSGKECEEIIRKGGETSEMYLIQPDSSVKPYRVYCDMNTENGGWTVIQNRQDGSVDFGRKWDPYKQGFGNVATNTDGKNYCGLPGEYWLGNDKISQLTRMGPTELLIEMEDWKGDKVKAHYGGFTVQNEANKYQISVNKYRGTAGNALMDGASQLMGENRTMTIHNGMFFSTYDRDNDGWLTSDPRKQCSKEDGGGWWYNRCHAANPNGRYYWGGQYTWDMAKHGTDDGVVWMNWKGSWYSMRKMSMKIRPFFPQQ
T1 sequence (P02671 20-629 partner limits assumed): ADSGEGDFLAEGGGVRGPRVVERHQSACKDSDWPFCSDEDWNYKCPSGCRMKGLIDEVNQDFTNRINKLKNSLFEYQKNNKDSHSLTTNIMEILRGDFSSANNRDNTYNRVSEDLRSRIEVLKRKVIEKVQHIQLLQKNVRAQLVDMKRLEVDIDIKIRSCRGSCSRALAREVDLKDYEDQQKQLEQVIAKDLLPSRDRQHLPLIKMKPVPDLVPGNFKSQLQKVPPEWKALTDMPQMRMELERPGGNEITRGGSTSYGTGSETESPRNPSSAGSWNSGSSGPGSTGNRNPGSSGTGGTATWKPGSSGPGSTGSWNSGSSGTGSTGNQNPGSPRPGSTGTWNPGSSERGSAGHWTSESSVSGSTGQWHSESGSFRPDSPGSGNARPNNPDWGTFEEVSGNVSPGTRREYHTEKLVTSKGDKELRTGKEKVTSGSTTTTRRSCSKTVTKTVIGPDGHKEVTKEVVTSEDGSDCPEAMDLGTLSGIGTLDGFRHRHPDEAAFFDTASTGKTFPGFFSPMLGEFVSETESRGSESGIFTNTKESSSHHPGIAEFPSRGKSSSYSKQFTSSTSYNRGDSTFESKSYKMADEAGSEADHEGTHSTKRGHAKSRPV
The assay is described as follows: Mixtures of peptide conjugate and peptide dendrimer copolymerising with fibrinogen, clotting time. It counts as biochemical. The following applies: conjugate 2 mg/ml mixed with Peptide Dendrimer No. 3 or 4 at 0.025-0.5 mg/ml; FIG. 6. As to the method: (§1) The ability of Peptide Dendrimer No. 12 to polymerise fibrinogen was assessed. 30 μl of dendrimer in solution, at concentration ranging from 0.005-2 mg/ml, was added to 100 μl purified human fibrinogen at 3 mg/ml (the level of fibrinogen found in the blood). Polymerisation of fibrinogen was analysed using a Sigma Amelung KC4 Delta coagulation analyser.
Peptide Conjugate No. 1 or 2 (2 mg/ml) was mixed with Peptide Dendrimer No. 3 or 4, and fibrinogen, and the ability of the mixtures to copolymerise with fibrinogen was assessed using the same method described in Example 2, for a concentration of each dendrimer ranging from 0.025-0.5 mg/ml.

Assay [1] has as its target T2, purified human fibrinogen (Homo sapiens, UniProt P02675+P02679).
T2 sequence (P02679 27-433 limits assumed): T1 sequence (P02679 27-433 limits assumed)
T2 sequence (P02675 31-491): T1 sequence (P02675 31-491)
T2 sequence (P02671 20-629 partner limits assumed): T1 sequence (P02671 20-629 partner limits assumed)
Briefly: Copolymerisation of peptide dendrimer with purified fibrinogen, clotting time on KC4 Delta coagulation analyser. Type of assay: biochemical. As to the method: as §1
The ability of Peptide Dendrimer Nos. 4, 5, 10, 11, and 12 to copolymerise with fibrinogen was assessed using the same method described in Example 2. The concentration of each dendrimer was varied from 0.005-0.5 mg/ml.
The ability of the dendrimers to copolymerise with fibrinogen was assessed using the same method described in Example 2, for a concentration of each dendrimer ranging from 0.005-0.5 mg/ml.

As for “Peptide Conjugate No. 1: two GPRP fibrinogen-binding peptides attached by linkers to a lysine residue, second by its amino-terminal end with carboxy-terminal amide”, the “activity of mixtures in copolymerising with fibrinogen (clotting times)” value with fibrinogen is reported as “not active”.

Consider “Peptide Conjugate No. 2: GHRPY peptide and reverse sequence YPRHG (amide) attached by linkers to a lysine residue”, for which, in the assay with fibrinogen, the “activity of mixtures in copolymerising with fibrinogen (clotting times)” value is “synergistic and increased activity”.

On to “Peptide Dendrimer No. 3: three-branch dendrimer on a single lysine, peptides of sequence GPRPG; one attached by its amino-terminal end, carboxy-terminal amide”, for which the “ability to copolymerise with fibrinogen” value in assay [1] (at higher fibrinogen concentrations (data not shown)) is “able to copolymerise with fibrinogen”. Besides, the “ability to copolymerise with fibrinogen (clotting time)” value in assay [1] (dendrimer 0.005-0.5 mg/ml, fibrinogen 3 mg/ml, FIG. 2 and 3) is “reduced the ability of the dendrimer to copolymerise with fibrinogen”.
